Data on two substances can be found in publication PMC10526228.

What is called Kd is the constant that tells how readily two partners part at equilibrium. For orientation: koff means the rate constant with which the complex falls apart. High values mean fast dissociation, low ones slow dissociation.

The target in one assay is S100A6 (Homo sapiens) (UniProt P06703). The note with it: cited from earlier work.
In another assay the target is growth hormone (human) (UniProt P01241). Kind of assay: SPR; cytokine immobilised by amine coupling on a ProteOn GLH chip (ProteOn XPR36); S100A6 as analyte, 63 nM–8 µM, 300 s; 25 °C; 10 mM HEPES, 150 mM NaCl, 1 mM CaCl2, 0.05% Tween 20, pH 7.4; heterogeneous ligand model (single-site scheme for IL-2).
A further assay addresses interleukin-2 (human) (UniProt P60568). The description is as above.
In another assay the target is prolactin (human) (UniProt P01236). The description is as above.

On to S100A6 (from UniProt P06703), for which the Kd with S100A6 (Homo sapiens) is less than 500 nM.

Consider “S100A6 protein (from UniProt P06703 1-90) (natural protein; other documents disagree on this pair)”, for which, in the assay with growth hormone (human), the Kd1 (KD, ligand population 1) was determined as 342 nM; the Kd2 (KD, ligand population 2) was determined as 416 nM; the kd1 (koff, ligand population 1) stood at 0.000373 s⁻¹; the kd2 (koff, ligand population 2) was 0.00587 s⁻¹. For the same substance, in the assay with interleukin-2 (human), the dissociation constant Kd is 12 µM and the koff was found to be 0.00497 s⁻¹. In the assay with prolactin (human), the Kd1 (KD, ligand population 1) amounted to 84 nM; the Kd2 (KD, ligand population 2) turned out to be 635 nM; the kd1 (koff, ligand population 1) came out at 0.000159 s⁻¹; the kd2 (koff, ligand population 2) turned out to be 0.0155 s⁻¹.
